Assay results published in patent US7338807 (US Dept. of Health and Human Services, dated 2008).

Key:
Assay in all cases: GST pull-down on GSH-beads, 35S-labelled in vitro-translated protein
[1] = target: T1, Rad3 protein, in vitro-translated, 35S-labelled (yeast, UniProt P06839 1-778, [35S]Cysteine label)
T1 construct: also called yeast Rad3
T1 sequence (looked up): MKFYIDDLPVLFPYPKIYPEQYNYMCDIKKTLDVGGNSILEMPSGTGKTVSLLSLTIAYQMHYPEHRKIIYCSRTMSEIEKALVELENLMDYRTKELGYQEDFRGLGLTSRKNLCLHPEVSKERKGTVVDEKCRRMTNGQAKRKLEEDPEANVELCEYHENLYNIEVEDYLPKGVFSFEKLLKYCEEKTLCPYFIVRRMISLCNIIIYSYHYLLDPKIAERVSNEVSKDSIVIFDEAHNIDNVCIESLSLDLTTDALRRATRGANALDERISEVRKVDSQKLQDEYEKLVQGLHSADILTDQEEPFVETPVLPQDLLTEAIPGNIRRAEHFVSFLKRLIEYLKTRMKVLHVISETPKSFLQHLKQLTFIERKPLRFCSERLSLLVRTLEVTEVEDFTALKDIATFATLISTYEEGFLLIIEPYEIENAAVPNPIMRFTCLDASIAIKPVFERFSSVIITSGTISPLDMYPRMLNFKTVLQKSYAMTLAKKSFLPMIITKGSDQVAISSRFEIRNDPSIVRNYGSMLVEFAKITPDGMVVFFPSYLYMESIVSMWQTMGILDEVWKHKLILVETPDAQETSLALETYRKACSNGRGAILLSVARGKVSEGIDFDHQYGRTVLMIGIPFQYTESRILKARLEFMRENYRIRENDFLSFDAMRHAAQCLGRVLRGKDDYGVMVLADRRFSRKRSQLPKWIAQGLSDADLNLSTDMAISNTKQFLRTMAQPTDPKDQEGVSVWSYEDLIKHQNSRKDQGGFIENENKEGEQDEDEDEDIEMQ

[2] = target: T2, XPB protein, full length, in vitro-translated, 35S-labelled (human, UniProt P19447 1-782, [35S]Cysteine label)
T2 construct: Full length XPB translated in vitro from plasmid pZAP10; also called wild-type XPB
T2 sequence: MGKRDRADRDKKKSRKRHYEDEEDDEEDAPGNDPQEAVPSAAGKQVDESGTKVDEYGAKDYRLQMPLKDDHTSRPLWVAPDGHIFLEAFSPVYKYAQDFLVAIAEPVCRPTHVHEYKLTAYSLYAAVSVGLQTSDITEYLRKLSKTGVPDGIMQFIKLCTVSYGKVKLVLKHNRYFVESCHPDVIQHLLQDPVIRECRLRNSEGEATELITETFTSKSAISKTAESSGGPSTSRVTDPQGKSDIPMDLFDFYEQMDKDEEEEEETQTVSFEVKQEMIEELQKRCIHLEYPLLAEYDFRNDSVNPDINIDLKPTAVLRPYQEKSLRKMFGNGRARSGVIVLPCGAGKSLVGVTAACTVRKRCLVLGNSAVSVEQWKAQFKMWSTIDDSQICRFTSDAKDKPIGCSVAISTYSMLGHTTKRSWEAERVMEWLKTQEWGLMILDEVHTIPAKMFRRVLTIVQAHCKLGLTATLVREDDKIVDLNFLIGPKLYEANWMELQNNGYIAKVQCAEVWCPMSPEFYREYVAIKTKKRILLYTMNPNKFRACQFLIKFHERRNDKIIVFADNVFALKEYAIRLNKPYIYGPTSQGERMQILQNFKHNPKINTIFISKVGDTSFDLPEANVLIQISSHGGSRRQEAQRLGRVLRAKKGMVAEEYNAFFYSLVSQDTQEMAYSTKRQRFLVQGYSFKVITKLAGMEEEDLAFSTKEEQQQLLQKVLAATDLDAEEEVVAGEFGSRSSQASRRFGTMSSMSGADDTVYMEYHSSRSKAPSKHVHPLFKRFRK

[3] = target: T3, CSB protein, in vitro-translated, 35S-labelled (human, [35S]Cysteine label)
T3 construct: also called CSR

[4] = target: T4, XPD protein, in vitro-translated, 35S-labelled (human, UniProt P18074 1-760, [35S]Cysteine label)
T4 sequence (looked up): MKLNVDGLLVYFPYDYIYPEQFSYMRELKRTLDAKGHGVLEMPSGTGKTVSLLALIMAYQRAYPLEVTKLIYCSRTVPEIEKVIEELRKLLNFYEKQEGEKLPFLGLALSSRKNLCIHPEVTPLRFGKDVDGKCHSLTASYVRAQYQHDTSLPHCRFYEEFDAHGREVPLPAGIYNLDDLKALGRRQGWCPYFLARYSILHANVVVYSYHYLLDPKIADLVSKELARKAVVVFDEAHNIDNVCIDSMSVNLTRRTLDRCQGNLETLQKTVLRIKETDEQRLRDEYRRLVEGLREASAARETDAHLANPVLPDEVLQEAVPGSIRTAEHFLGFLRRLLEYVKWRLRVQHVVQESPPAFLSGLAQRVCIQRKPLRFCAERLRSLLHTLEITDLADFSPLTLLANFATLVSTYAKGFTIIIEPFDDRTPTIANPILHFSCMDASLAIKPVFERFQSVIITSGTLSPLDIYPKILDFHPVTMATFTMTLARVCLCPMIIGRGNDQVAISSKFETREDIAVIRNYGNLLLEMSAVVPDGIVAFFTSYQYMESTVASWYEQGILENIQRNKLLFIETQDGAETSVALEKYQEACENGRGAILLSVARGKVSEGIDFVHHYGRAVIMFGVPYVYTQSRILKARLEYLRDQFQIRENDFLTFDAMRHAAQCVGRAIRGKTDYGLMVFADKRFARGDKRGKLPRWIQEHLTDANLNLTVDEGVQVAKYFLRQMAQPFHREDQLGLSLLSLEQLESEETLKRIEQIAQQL

Measured: binding result

B1: GST (glutathione S-transferase alone) (other, UniProt P08515 1-218, looked up)
chain: MSPILGYWKIKGLVQPTRLLLEYLEEKYEEHLYERDEGDKWRNKKFELGLEFPNLPYYIDGDVKLTQSMAIIRYIADKHNMLGGCPKERAEISMLEGAVLDIRYGVSRIAYSKDFETLKVDFLSKLPEMLKMFEDRLCHKTYLNGDHVTHPDFMLYDALDVVLYMDPMCLDAFPKLVCFKKRIEAIPQIDKYLKSSKYIAWPLQGWQATFGGGDHPPK
notes: Control loaded on GSH-beads; also called GST alone
no binding (tested: 4 µg of GST): all assays above
